# scFv variants of Ab-91 (heavy chain) against a SARS-CoV-2 spike peptide

Target: peptide PDVDLGDISGINAS, taken from heptad repeat 2 (HR2) of SARS-CoV-2 spike.

Each scFv is VL, the linker GGGGSGGGGSGGGGS, VH, as in the parent Ab-91, and differs from it in the CDRs of the heavy chain only.
VL: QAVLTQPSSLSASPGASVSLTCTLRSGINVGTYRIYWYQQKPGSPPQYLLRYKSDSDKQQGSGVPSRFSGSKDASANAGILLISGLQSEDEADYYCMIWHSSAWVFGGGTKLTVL
VH: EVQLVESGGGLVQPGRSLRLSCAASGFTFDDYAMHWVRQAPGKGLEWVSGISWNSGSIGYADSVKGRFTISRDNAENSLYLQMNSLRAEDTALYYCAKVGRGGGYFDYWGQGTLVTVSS

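Phage display of a naive human antibody library on the peptide gave the parent. The library (AAYL51) carries one to three amino acid substitutions per variant, with no insertions or deletions. Affinity was read by AlphaSeq, a pooled yeast mating assay with surface-displayed partners. Pairs that bind mate more often; barcode pairs of the diploids are counted by sequencing. Each replicate has its own calibration line, from reference interactions of the BCL2 family. Mating was done three times.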

Each variant is given by its three heavy chain CDRs, as the data file delimits them; those of the parent are GFTFDDYAMH, GISWNSGSIGYADSVK, VGRGGGYFDY. All variants listed here change M34 of the VH, counted from its first residue. Kd is apparent (estimated from mating counts) and averaged on the log scale over replicates with a signal. Smaller is tighter. "no signal" marks a missing value. The strain was present, yet no cells mated with the target were sequenced in any replicate, which points to weak or no binding.

| CDR-H1 | CDR-H2 | CDR-H3 | Kd (apparent) | detected | signal with controls |
|---|---|---|---|---|---|
| GFTTDDYAFH | GISWNSGSIGYADSGK | VGRGGGYFDY | 41 µM | 1 of 3 | 0 of 9 |
| GFTFDDYANH | GKRWNSGSIGYADSVK | VGRGGGYFDY | no signal | 0 of 3 | 0 of 9 |
| GFTFDDYAEH | GISRHSGSIGYADSVK | VGRGGGYFDY | no signal | 0 of 3 | 1 of 9 |
| GFTFDDYALH | GISWNSGSIGYADSVK | VGRGGGYFDY | 6.0 µM | 3 of 3 | 6 of 9 |
| GFTFDDYAGH | GISWNSVSIGYADSVK | VGRGGGYFDY | 84 µM | 2 of 3 | 6 of 9 |
| GFTFDDYANH | GISGNSGSIGYADAVK | VGRGGGYFDY | 98 µM | 2 of 3 | 0 of 9 |
| GFTFDDYALH | GIYWHSGSIGYADSVK | VGRGGGYFDY | no signal | 0 of 3 | 0 of 9 |
| GFTFDDYARH | GISWNSGSCGYADTVK | VGRGGGYFDY | no signal | 0 of 3 | 2 of 9 |
| GFTFDDYAEH | GISWNSGSIGYADSVK | VGRGGGYFDY | no signal | 0 of 3 | 3 of 9 |
| GFTFQDYAYH | GISSNSGSIGYADSVK | VGRGGGYFDY | 1.9 µM | 2 of 3 | 5 of 9 |
| GGTFDDYAQH | GISWNNGSIGYADSVK | VGRGGGYFDY | no signal | 0 of 3 | 1 of 9 |
| GFTFDDYAHH | GISPNSGSIGYADSVK | VGRYGGYFDY | 3.1 µM | 3 of 3 | 7 of 9 |
| GFVFDDYASH | GISWNSGSIGYADSVK | VGWGGGYFDY | 30 µM | 1 of 3 | 2 of 9 |
| GFTFCTYAAH | GISWNSGSIGYADSVK | VGRGGGYFDY | 64 µM | 2 of 3 | 1 of 9 |
| GFTFCDYAVH | GISWNSGSIGYADYVK | VGRGGGYFDY | 19 µM | 3 of 3 | 1 of 9 |
| GFTFDDYAAR | GISWNSGSIGYADSVK | VGRGGGYFDY | 330 µM | 1 of 3 | 0 of 9 |
| GWTFDDYARH | GISWNSGSIGYADSVK | VGRGGGYFDA | no signal | 0 of 3 | 1 of 9 |
| GFTFDDYAVH | GISWNSGSIGYWDSVK | VGRGGGYFDY | no signal | 0 of 3 | 3 of 9 |
| GFTCDDYAQH | GISWNSGSIGYYDSVK | VGRGGGYFDY | no signal | 0 of 3 | 0 of 9 |
| GFTFDDYANH | GISWNSGSIGYADSVK | VGRGGPYFDY | 2.2 µM | 1 of 3 | 1 of 9 |
| GFTFDDYALH | GISANSGSIGYADSVK | VVRGGGYFDY | 3.2 µM | 1 of 3 | 0 of 9 |
| GFTFDDYAWH | GISWNNGSIGYADSVK | VGRGGNYFDY | no signal | 0 of 3 | 0 of 9 |
| GFTFDDYAGH | GISWNSGSIGYADSVK | VGRGGGVFDY | no signal | 0 of 3 | 0 of 9 |
| GFTTHDYAIH | GISWNSGSIGYADSVK | VGRGGGYFDY | 16 µM | 1 of 3 | 1 of 9 |
| GFTFDDVAIH | QISWNSGSIGYADSVK | VGRGGGYFDY | 22 µM | 2 of 3 | 0 of 9 |
| GFTFSDYANH | GISWNSGSIGYADSVK | VGRDGGYFDY | 11 µM | 1 of 3 | 0 of 9 |
| GNTFDDYAYH | GISWNSGSGGYADSVK | VGRGGGYFDY | 21 µM | 1 of 3 | 3 of 9 |
| GFTFDDYAFH | GISWNSGSIGYADEVK | VGRGGGYFDW | no signal | 0 of 3 | 5 of 9 |
| GFMFDDYAGH | GISWNSGSTGYADSVK | VGRGGGYFDY | 100 µM | 3 of 3 | 7 of 9 |
| GFTFDDEASH | GICWNSGSIGYADSVK | VGRGGGYFDY | no signal | 0 of 3 | 0 of 9 |
| GFTFDDYATH | GISWNSGSIGYADSVK | VGRGGGYFDY | no signal | 0 of 3 | 0 of 9 |
| GFTMDDYANH | GIPWNSGSIGYADSVK | VGRGGGYFDY | no signal | 0 of 3 | 0 of 9 |
| GFTFKDYAAH | GISWNSGSIGYADSVK | VGRGGGYFWY | 510 nM | 1 of 3 | 3 of 9 |
| GFTFDDQAEH | GIHWNSGSIGYADSVK | VGRGGGYFDY | no signal | 0 of 3 | 1 of 9 |
| GFTFDDYPVH | GISWNSGSIGYADSDK | VGRGGGYFDY | no signal | 0 of 3 | 2 of 9 |
| DFTRDDYAFH | GISWNSGSIGYADSVK | VGRGGGYFDY | 120 µM | 2 of 3 | 1 of 9 |
| GFTADDYARH | GISWNSGSIGYADSVK | VGRGGGYFDF | no signal | 0 of 3 | 1 of 9 |
| GFTFDDYATH | GISWNSGSIGYADSVK | VKRGGGYFDQ | 2.5 mM | 1 of 3 | 6 of 9 |
| GFTFDDYALH | GISWNSGSAGYADSVK | VGMGGGYFDY | 110 nM | 2 of 3 | 0 of 9 |
| GFTFDDYAQH | GISWNSGSIGYADSVK | IGREGGYFDY | no signal | 0 of 3 | 0 of 9 |
| GFTFDDYASH | GISWNSGSIGSADSVK | VGRGGGYFAY | 34 µM | 3 of 3 | 7 of 9 |
| GFTFDDYAIH | GISWNSGSIGYADSVK | VIRGGGYFDY | 5.4 µM | 3 of 3 | 0 of 9 |
| GFTFDDYAIH | GIQWNSGSIGYADSVK | VGRGGDYFDY | no signal | 0 of 3 | 2 of 9 |
| GFTFDDYAWH | GISWNICSIGYADSVK | VGRGGGYFDY | no signal | 0 of 3 | 3 of 9 |
| GFTFDDYALH | GISWNSGSIYYADSCK | VGRGGGYFDY | no signal | 0 of 3 | 1 of 9 |
| GFTFDYYARH | GISWTSGSIGYADSVK | VGRGGGYFDY | 47 µM | 2 of 3 | 1 of 9 |
| GFTFDDYAPH | GPSENSGSIGYADSVK | VGRGGGYFDY | no signal | 0 of 3 | 0 of 9 |

Extract of 3 entries:

| CDR-H1 | CDR-H2 | CDR-H3 | Kd (apparent) | detected | signal with controls |
|---|---|---|---|---|---|
| GFTFDDYAIH | GIQWNSGSIGYADSVK | VGRGGDYFDY | no signal | 0 of 3 | 2 of 9 |
| GFTFDDQAEH | GIHWNSGSIGYADSVK | VGRGGGYFDY | no signal | 0 of 3 | 1 of 9 |
| GFTFDDYARH | GISWNSGSCGYADTVK | VGRGGGYFDY | no signal | 0 of 3 | 2 of 9 |

Nonspecific signal, from three strains lacking the peptide, appeared in 21% of pairings of library AAYL51, centred on 34 µM (5% of these signals below 1.8 µM); values are not corrected for it. For each scFv, signals with the empty controls are counted beside the result. Parent in this assay: reference entry 72 nM, copy in this library 7.5 nM.

Values reported by Engelhart et al. 2022, doi:10.1038/s41597-022-01779-4 (FLAb copy).